Paper PMC3661926 (Acta Neuropathologica, 2013)

System: (Thy1)-h[A30P]α-syn mice
Assay: Transgenic α-synuclein mouse model
Conditions: 69-week-old mice

In the case of `Brc1cccc(-c2cc(-c3ccc4c(c3)OCO4)n[nH]2)c1` [anle138b, 3-(1,3-benzodioxol-5-yl)-5-(3-bromophenyl)-1H-pyrazole], the “pathological α-syn oligomers (sucrose-gradient)” value is reported as “strong reduction of pathological α-syn oligomers”.
